Test in all cases: colorimetric ATPase assay
Assay [1] addresses Complex of Sliding-clamp-loader large subunit [R175K] and Sliding-clamp-loader small subunit (Enterobacteria phage T4, UniProt P04526, R175K). As to conditions: pH 7.5; 25 °C. The method, then:
(§1) ATPase assay contained 10 mM Mg2+, 1uM 13/20 DNA, 500uM (r)NTP or (d)NTP, 500 nM gp45, and 500 nM gp44/62 in T4 buffer. ATPase activity was measured by monitoring the release of Pi using a malachite green assay (31) or via the hydrolysis of [gamma-32P]-ATP. Reaction inhibition studies used identical conditions except for the inclusion of variable concentrations of inhibitor (0-400 uM) and a fixed concentration of ATP (32.5 nM [gamma-32P]-ATP and 100 uM unlabeled ATP).

Protein sequences, listed by entry. Tags and fused reporters are not part of them. Lines headed by an entry give the natural chain unless they say otherwise; changes in a name come on top.
UniProt P06710: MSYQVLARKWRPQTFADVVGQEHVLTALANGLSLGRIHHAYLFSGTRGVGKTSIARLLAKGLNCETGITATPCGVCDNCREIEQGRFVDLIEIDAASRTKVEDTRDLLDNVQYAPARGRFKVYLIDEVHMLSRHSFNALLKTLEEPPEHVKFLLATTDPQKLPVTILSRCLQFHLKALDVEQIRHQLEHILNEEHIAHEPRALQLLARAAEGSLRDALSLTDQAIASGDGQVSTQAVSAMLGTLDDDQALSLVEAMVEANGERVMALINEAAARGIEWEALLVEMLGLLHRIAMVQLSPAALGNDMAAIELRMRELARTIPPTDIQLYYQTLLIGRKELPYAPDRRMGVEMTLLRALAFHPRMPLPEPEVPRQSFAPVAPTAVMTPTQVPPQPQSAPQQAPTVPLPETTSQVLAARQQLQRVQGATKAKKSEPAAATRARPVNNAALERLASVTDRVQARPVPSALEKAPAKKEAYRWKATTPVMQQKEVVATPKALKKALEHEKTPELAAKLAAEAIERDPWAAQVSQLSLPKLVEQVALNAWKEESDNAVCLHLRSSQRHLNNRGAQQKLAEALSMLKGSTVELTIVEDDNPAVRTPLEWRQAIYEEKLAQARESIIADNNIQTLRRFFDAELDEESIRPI

For assay [2], the target named is Complex of Sliding-clamp-loader large subunit [R175L] and Sliding-clamp-loader small subunit (Enterobacteria phage T4, UniProt P04526, R175L). The conditions noted are these: pH 7.5; 25 °C. Here is the method: as §1
Assay [3] addresses T1, Sliding-clamp-loader large/small subunit (Enterobacteria phage T4, UniProt P04526+P04527).
T1 sequence (P04526 whole entry): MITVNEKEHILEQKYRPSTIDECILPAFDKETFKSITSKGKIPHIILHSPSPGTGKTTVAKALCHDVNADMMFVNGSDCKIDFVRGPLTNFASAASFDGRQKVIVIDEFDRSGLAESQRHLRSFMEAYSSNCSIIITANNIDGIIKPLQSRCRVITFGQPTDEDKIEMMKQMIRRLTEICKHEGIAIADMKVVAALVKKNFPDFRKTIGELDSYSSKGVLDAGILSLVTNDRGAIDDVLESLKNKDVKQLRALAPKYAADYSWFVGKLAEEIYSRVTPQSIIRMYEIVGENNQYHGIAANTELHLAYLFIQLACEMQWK
T1 sequence (P04527 whole entry): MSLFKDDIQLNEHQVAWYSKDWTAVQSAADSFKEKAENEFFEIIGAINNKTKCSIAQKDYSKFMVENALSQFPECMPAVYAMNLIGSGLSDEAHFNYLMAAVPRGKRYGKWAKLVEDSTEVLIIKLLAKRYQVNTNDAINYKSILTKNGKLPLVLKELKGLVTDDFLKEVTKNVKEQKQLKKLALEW
As to conditions: pH 7.5; 25 °C. Here is the method: as §1

Assay [4] concerns the target DNA polymerase III subunit tau (Escherichia coli, UniProt P06710). As to conditions: pH 7.5; 37 °C.

The Ki is the dissociation constant of the complex between target and ligand, obtained from inhibition or displacement.

`O=C(O)c1ccc2c(ccn2[C@H]2C[C@H](O)[C@@H](COP(=O)(O)OP(=O)(O)OP(=O)(O)O)O2)c1` [5-carboxylate-indolyl-2'-deoxyriboside triphosphate]: the Ki in assay [1] is 40.6 µM; in assay [2] it was less than 200 µM; in assay [3] it was 37 µM; in assay [4], 40 µM.
As for `O=[N+]([O-])c1ccc2c(ccn2[C@H]2C[C@H](O)[C@@H](COP(=O)(O)OP(=O)(O)OP(=O)(O)O)O2)c1` [5-nitro-indolyl-2'-deoxyriboside triphosphate], the Ki in assay [1] worked out at 13.8 µM; in assay [2], 16.4 µM; in assay [3] it was 4.8 µM.
